Laboratory results taken from patent US9227982B2, “4-oxo-3,5,7,8-tetrahydro-4H-pyrano[4,3-d]pyrminidinyl compounds for use as tankyrase inhibitors” (NOVARTIS AG, priority 2011, dated 2016).

By UniProt entry, the sequences of proteins in these tests, tags left out. Where a name states a change or a piece, a line headed by the entry shows the natural chain unless it says otherwise. Residues count along the entry.
UniProt Q9H2K2, 959-1164: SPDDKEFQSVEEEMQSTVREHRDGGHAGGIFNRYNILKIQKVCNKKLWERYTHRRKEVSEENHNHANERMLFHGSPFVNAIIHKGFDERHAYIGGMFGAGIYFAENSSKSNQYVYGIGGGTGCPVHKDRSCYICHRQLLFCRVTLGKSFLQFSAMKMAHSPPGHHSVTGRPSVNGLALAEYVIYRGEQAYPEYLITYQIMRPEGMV
UniProt P09874, whole entry: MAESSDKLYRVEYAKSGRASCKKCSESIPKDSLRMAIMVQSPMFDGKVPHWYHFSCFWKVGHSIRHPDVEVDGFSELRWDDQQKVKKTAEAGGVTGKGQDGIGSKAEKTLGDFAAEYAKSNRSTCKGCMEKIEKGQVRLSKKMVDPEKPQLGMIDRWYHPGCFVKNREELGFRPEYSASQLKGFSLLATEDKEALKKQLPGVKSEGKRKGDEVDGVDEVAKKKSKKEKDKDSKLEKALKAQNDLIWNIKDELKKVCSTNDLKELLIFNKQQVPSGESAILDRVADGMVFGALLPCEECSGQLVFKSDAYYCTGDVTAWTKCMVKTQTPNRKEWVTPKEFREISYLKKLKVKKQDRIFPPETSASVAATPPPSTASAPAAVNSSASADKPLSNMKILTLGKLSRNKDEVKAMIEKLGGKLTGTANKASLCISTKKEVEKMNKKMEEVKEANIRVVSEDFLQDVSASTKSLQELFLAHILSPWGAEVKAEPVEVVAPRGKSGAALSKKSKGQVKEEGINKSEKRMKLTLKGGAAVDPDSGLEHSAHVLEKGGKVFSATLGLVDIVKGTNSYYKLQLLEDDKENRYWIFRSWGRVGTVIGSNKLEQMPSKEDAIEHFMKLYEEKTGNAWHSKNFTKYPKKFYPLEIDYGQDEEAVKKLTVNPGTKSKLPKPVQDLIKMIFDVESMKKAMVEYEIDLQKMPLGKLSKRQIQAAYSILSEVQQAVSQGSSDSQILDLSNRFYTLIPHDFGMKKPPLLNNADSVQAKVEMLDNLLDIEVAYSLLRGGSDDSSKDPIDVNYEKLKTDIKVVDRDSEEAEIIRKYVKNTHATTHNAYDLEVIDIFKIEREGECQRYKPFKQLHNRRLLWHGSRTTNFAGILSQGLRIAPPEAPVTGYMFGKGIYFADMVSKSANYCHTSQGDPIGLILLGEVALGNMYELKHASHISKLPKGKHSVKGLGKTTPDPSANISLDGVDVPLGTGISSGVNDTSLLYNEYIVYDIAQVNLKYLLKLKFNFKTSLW
UniProt O88554: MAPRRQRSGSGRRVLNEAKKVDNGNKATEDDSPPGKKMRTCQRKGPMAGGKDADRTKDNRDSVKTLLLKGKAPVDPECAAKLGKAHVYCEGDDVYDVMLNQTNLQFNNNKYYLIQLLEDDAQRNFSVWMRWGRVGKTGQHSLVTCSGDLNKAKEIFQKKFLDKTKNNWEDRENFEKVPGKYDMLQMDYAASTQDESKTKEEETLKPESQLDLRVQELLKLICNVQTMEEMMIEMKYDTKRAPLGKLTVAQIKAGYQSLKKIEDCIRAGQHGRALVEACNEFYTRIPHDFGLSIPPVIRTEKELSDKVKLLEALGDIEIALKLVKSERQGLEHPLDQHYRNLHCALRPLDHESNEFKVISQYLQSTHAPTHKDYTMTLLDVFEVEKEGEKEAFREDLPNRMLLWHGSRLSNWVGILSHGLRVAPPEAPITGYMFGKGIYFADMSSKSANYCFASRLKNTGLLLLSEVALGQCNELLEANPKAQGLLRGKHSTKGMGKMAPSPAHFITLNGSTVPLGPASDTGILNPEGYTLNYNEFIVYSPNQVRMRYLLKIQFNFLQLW

Key:
Format in all cases: biochemical
[1] = molecular target: TNKS2 (GST-tagged tankyrase 2 PARP domain, TNKS2P) (Homo sapiens (Human), UniProt Q9H2K2); assay: TNKS2 autoparsylation enzymatic assay (LC/MS detection of nicotinamide); details: 20 nM enzyme, 250 μM β-NAD+, 60 min, read-out: TNKS2 AP IC50
Text: (§1) The human tankyrase 1 PARP catalytic domain, TNKS1P, was cloned into a pDONR221 vector using the Invitrogen Gateway Technology. This entry clone was then subcloned into the destination vector pDEST20 to obtain the N-terminal Glutathione S-transferase (GST)-tagged fusion protein. GST-TNKS1P was then expressed in Sf21 cells using the Invitrogen baculovirus expression system (Invitrogen-Bac-to-Bac® Baculovirus Expression System, Version D). The protein was purified by a GSTrap column (GE Healthcare). The N-terminal GST-tagged tankyrase 2 protein PARP domain, TNKS2P, was cloned, expressed, and purified in a similar manner. Human PARP1 (Cat. No. 4668-100-01) and activated DNA (Cat. No. 4671-096-06) were purchased from Trevigen, Inc. PARP2 (Cat. No. ALX-201-064-C020) was purchased from Alexis Biochemical.
The % Inhibition was calculated as: (Control−Sample)/(Control−Background)*100. “Control” is the average value of 8 wells without compound; and “Background” is the average of 8 wells mixed with 5× quenching solution measured prior to initiation of the reaction.

Human PARP1 = Human PARP1 (Homo sapiens (Human), UniProt P09874); assay: PARP1 autoparsylation enzymatic assay (LC/MS detection of nicotinamide); details: 20 nM enzyme, 250 μM β-NAD+, 60 min
Text: as §1, with “manner.” for “manner. Human PARP1 (Cat. No. 4668-100-01) and activated DNA (Cat. No. 4671-096-06) were purchased from Trevigen, Inc. PARP2 (Cat. No. ALX-201-064-C020) was purchased from Alexis Biochemical.”
(§2) The autoparsylation activity of the TNKS 1/2 or PARP1/2 enzymes was measured by the liquid chromatography-mass spectrometry (LC/MS) detection of nicotinamide as readout. Compound activity in inhibiting the TNKS and PARP autoparsylation was evaluated by IC50 measurements. […] For the background control wells, 10 μL of the 5× quenching solution per well was added prior to the addition of β-NAD^+. The % Inhibition was calculated as: (Control−Sample)/(Control−Background)*100.

PARP2 = PARP2 (Mus musculus (Mouse), UniProt O88554); assay: PARP2 autoparsylation enzymatic assay (LC/MS detection of nicotinamide)
Text: as §1, with “manner.” for “manner. Human PARP1 (Cat. No. 4668-100-01) and activated DNA (Cat. No. 4671-096-06) were purchased from Trevigen, Inc. PARP2 (Cat. No. ALX-201-064-C020) was purchased from Alexis Biochemical.”
as §2

| Compound | IC50 [1] | other results |
| --- | --- | --- |
| N-((4-0xo-4,5,7,8-tetrahydro-3H-pyrano[4,3-d]pyrimidin-2-yl)methyl)-3-phenyl-N-(thiophen-3-ylmethyl)propanamide [Example 18] | 1030 ± 70 nM | IC50 (Human PARP1): 71000 ± 18000 nM |
| O=C(CCc1cccc(O)c1)N(Cc1nc2c(c(=O)[nH]1)COCC2)Cc1cccs1 [Example 7, 3-(3-Hydroxy-phenyl)-N-(4-oxo-3,5,7,8-tetrahydro-4H-pyrano[4,3-d]pyrimidin-2-ylmethyl)-N-thiophen-2-ylmethyl-propionamide] | 178 ± 16 nM | IC50 (PARP2): > 19000 nM |
| O=C(CCc1ccccc1O)N(Cc1nc2c(c(=O)[nH]1)COCC2)Cc1cccs1 [Example 6, 3-(2-Hydroxy-phenyl)-N-(4-oxo 3,5,7,8-tetrahydro-4H-pyrano[4,3-d]pyrimidin-2-ylmethyl)-N-thiophen-2-ylmethyl-propionamide] | 766 ± 23 nM |  |
| O=C(CCc1ccccc1)N(Cc1nc2c(c(=O)[nH]1)COCC2)Cc1cccs1 [Example 1] |  | IC50 (PARP2; autoparsylation, 20 nM enzyme, 250 μM β-NAD+, 60 min, read-out: PARP2 IC50): > 19000 nM |
| CCN(Cc1nc2c(c(=O)[nH]1)COCC2)C(=O)CCc1ccccc1 [Example 15, N-Ethyl-N-((4-oxo-4,5,7,8-tetrahydro-3H-pyrano[4,3-d]pyrimidin-2-yl)methyl)-3-phenylpropanamide] | 4780 ± 400 nM |  |

Now from value to compound, other results behind:

| IC50 [1] | Compound | other results |
| --- | --- | --- |
| 962 ± 13 nM | O=C(CCc1ccncc1)N(Cc1nc2c(c(=O)[nH]1)COCC2)Cc1cccs1 [Example 11, N-((4-Oxo-4,5,7,8-tetrahydro-3H-pyrano[4,3-d]pyrimidin-2-yl)methyl)-3-(pyridin-4-yl)-N-(thiophen-2-ylmethyl)propanamide] |  |
| 78 ± 5 nM | O=C(CCc1ccc(F)cc1)N(Cc1nc2c(c(=O)[nH]1)COCC2)Cc1cccs1 [Example 2, 3-(4-Fluoro-phenyl)-N-(4-oxo-3,5,7,8-tetrahydro-4H-pyrano[4,3-d]pyrimidin-2-ylmethyl)-N-thiophen-2-ylmethyl-propionamide] |  |
| 64 ± 15 nM | O=C(CCc1ccccc1F)N(Cc1nc2c(c(=O)[nH]1)COCC2)Cc1cccs1 [Example 4, 3-(2-Fluoro-phenyl)-N-(4-oxo-3,5,7,8-tetrahydro-4H-pyrano[4,3-d]pyrimidin-2-ylmethyl)-N-thiophen-2-ylmethyl-propionamide] |  |
| 284 ± 56 nM | O=C(CCc1cccc(F)c1)N(Cc1nc2c(c(=O)[nH]1)COCC2)Cc1cccs1 [Example 5, 3-(3-Fluorophenyl)-N-((4-oxo-4,5,7,8-tetrahydro-3H-pyrano[4,3-d]pyrimidin-2-yl)methyl)-N-(thiophen-2-ylmethyl)propanamide] |  |

Like-named read-outs stand apart in the source and are kept apart here.
